Molecules are shown by their SMILES. pIC50: −log10 of the molar value. Structures can show the parent of a compound that is named as a salt.

By UniProt entry, the sequences of proteins in these tests, tags left out. Where a name states a change or a piece, a line headed by the entry shows the natural chain unless it says otherwise.
UniProt P42336, whole entry, looked up: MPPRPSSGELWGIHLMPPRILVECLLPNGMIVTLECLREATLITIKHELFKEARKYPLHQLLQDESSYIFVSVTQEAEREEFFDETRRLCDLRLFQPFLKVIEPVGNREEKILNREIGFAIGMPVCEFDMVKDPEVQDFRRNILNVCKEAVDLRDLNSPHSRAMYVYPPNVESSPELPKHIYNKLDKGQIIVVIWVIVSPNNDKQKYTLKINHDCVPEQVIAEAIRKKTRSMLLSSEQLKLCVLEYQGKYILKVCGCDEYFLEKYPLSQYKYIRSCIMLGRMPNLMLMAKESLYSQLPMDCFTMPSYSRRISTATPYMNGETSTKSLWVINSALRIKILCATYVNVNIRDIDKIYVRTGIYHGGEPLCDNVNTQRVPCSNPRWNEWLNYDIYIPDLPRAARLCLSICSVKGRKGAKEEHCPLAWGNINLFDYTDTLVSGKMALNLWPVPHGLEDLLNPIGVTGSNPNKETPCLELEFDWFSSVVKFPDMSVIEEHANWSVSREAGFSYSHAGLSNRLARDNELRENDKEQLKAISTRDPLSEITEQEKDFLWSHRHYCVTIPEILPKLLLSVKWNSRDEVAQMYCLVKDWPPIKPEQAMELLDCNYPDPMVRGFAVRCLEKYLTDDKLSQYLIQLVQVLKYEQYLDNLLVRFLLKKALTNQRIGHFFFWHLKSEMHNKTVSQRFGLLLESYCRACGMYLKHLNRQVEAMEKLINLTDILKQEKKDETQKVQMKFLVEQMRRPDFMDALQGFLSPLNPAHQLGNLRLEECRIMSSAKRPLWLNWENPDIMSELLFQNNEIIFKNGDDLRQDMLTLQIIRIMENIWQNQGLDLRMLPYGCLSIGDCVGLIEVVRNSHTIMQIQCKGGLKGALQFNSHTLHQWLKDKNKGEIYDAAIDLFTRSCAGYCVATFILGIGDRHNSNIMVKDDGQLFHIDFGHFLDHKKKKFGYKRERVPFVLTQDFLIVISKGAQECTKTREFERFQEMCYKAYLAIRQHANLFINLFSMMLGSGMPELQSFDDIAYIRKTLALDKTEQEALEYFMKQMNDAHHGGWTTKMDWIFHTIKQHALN
UniProt P42338: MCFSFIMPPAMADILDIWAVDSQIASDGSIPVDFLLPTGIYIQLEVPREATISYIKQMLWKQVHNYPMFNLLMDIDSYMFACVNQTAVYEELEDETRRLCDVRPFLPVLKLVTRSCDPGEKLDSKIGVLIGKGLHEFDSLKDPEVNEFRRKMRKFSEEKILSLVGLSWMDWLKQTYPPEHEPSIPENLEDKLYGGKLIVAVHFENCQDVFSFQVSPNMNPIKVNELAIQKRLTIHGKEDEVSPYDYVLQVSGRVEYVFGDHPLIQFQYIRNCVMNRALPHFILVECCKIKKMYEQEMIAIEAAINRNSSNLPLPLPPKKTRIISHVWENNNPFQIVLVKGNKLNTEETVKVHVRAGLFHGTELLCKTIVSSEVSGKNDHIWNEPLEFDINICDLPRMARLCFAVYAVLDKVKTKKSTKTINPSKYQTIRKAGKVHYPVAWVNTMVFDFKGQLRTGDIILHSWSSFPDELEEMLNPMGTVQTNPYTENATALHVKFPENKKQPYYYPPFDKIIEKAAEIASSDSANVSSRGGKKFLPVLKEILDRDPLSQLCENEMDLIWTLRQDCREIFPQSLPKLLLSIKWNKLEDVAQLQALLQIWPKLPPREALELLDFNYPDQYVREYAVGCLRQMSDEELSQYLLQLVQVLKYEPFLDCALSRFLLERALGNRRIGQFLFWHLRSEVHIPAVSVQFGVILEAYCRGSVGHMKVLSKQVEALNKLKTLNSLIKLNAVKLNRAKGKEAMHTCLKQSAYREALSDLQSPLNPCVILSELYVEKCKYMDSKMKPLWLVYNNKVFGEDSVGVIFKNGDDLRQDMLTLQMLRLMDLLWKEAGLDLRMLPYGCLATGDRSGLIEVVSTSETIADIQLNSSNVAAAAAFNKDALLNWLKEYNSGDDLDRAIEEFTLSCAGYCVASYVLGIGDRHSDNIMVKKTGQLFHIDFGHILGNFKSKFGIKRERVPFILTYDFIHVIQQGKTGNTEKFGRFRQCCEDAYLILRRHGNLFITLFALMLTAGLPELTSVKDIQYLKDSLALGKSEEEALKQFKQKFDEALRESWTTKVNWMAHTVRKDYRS

One may read the pIC50 as the IC50 on a negative log10 scale, so that one unit is a factor of ten.

Assay [1] concerns the target PI 3-kinase alpha (Homo sapiens (Human), UniProt P42336). As to conditions: read-out: Assay A PI3Kα IC50.
Assay [2] deals with PI 3-kinase beta (Homo sapiens (Human), UniProt P42338). As to conditions: read-out: Assay B PI3Kβ IC50.
For assay [3], the target named is PI 3-kinase alpha (Rat-1 pBABEpuro Myr-HA-hp110 alpha cells) (Homo sapiens (Human), UniProt P42336). As to the kind of experiment: cell-based. As to conditions: Assay H PI3Kα IC50.
Assay [4] has as its target PI 3-kinase beta (Rat-1 pBABEpuro Myr-HA-hp110 beta cells) (Homo sapiens (Human), UniProt P42338). As to the kind of experiment: cell-based. As to conditions: Assay I PI3Kβ IC50.

As for `Cc1noc(-c2cc(-c3cc(S(=O)(=O)NCC4(O)CC4)ccc3C)cnc2N)n1` [Example 37.19, 3-(6-Amino-5-(3-methyl-1,2,4-oxadiazol-5-yl)pyridin-3-yl)-N-((1-hydroxycyclopropyl)methyl)-4-methylbenzenesulfonamide], the pIC50 in assay [1] is 6.27; in assay [2], 5.31; in assay [3], 5.10; in assay [4], < 5.00.

As to `Cc1noc(-c2cc(-c3cc(S(=O)(=O)NCC4(O)CCOCC4)ccc3C)cnc2N)n1` [Example 51, 3-(6-Amino-5-(3-methyl-1,2,4-oxadiazol-5-yl)pyridin-3-yl)-N-((4-hydroxytetrahydro-2H-pyran-4-yl)methyl)-4-methylbenzenesulfonamide], the pIC50 in assay [1] was 6.38; in assay [2], 5.74; in assay [3], 5.81; in assay [4], < 5.00.

For the molecule `Cc1ncc(-c2cc(-c3cc(S(=O)(=O)NCCCO)ccc3C)cnc2N)s1` [Example 9, 3-[6-Amino-5-(2-methyl-thiazol-5-yl)-pyridin-3-yl]-N-(3-hydroxy-propyl)-4-methyl-benzenesulfonamide], the pIC50 in assay [1] was 6.52; in assay [2], < 5.04; in assay [3] it was 5.28; in assay [4], 5.29.

`Cc1ccc(S(=O)(=O)N[C@H]2CC[C@H](O)CC2)cc1-c1cnc(N)c(-c2cc(C(C)(C)C)no2)c1` [Example 35.2, trans-3-(6-Amino-5-(3-(tert-butyl)isoxazol-5-yl)pyridin-3-yl)-N-(−4-hydroxycyclohexyl)-4-methylbenzenesulfonamide hydrochloride]: the pIC50 in assay [1] is 6.57; in assay [2], 5.17; in assay [3] it was < 5.52; in assay [4], 5.19.

`Cc1noc(-c2cc(-c3cc(S(=O)(=O)NO[C@H]4C[C@H](O)C4)ccc3C)cnc2N)n1` [Example 55, trans-3-(6-Amino-5-(3-methyl-1,2,4-oxadiazol-5-yl)pyridin-3-yl)-N-(3-hydroxycyclobutoxy)-4-methylbenzenesulfonamide]: the pIC50 is 7.05 in assay [1], 5.92 in assay [2], 6.49 in assay [3] and 6.39 in assay [4].

As to `Cc1ncc(-c2cc(-c3cc(S(=O)(=O)NCC(C)(C)O)ccc3C)cnc2N)o1` [Example 6, 3-(6-Amino-5-(2-methyloxazol-5-yl)pyridin-3-yl)-N-(2-hydroxy-2-methylpropyl)-4-methylbenzenesulfonamide], the pIC50 in assay [1] was 6.40; in assay [2], 5.64; in assay [3], 5.11; in assay [4], 5.33.

Consider `Cc1cc(-c2cc(-c3cc(S(=O)(=O)NCC4COC4)ccc3C)cnc2N)on1` [Example 25, 3-(6-Amino-5-(3-methylisoxazol-5-yl)pyridin-3-yl)-4-methyl-N-(oxetan-3-ylmethyl)benzenesulfonamide], for which the pIC50 in assay [1] is 6.40; in assay [2], 5.36; in assay [3], 5.55; in assay [4], < 5.00.

As for `Cc1noc(-c2cc(-c3cc(S(=O)(=O)N[C@H]4CC[C@H](CO)CC4)ccc3C)cnc2N)n1` [Example 19, trans 3-[6-Amino-5-(3-methyl-[1,2,4]oxadiazol-5-yl)-pyridin-3-yl]-N-(4-hydroxymethyl-cyclohexyl)-4-methyl-benzenesulfonamide hydrochloride], the pIC50 in assay [1] was 7.40; in assay [2], 7.00; in assay [3] it was 6.66; in assay [4] it was 6.12.

For `Cc1noc(-c2cc(-c3cc(S(=O)(=O)NCC(C)(C)O)ccc3C)cnc2N)n1` [Example 10, 3-(6-Amino-5-(3-methyl-1,2,4-oxadiazol-5-yl)pyridin-3-yl)-N-(2-hydroxy-2-methylpropyl)-4-methylbenzenesulfonamide, hydrochloride salt], the values for the pIC50 in assay [2] and in assay [4] were 5.37 and 5.39, respectively.

On to `Cc1noc(-c2cc(-c3cc(S(=O)(=O)NC4CC(F)(F)C4)ccc3C)cnc2N)n1` [Example 37.17, 3-(6-Amino-5-(3-methyl-1,2,4-oxadiazol-5-yl)pyridin-3-yl)-N-(3,3-difluorocyclobutyl)-4-methylbenzenesulfonamide], for which the pIC50 in assay [1] was 6.33; in assay [2], 5.55; in assay [3], < 5.00; in assay [4], < 5.00.

Consider `Cc1cc(-c2cc(-c3cc(S(=O)(=O)NCC4(CO)CCC4)ccc3C)cnc2N)on1` [Example 37.6, 3-(6-Amino-5-(3-methylisoxazol-5-yl)pyridin-3-yl)-N-((1-(hydroxymethyl)cyclobutyl)methyl)-4-methylbenzenesulfonamide], for which the pIC50 was 6.60 in assay [1], 6.10 in assay [2], 5.54 in assay [3] and < 5.00 in assay [4].

Take `Cc1ccc(S(=O)(=O)NCC(C)(C)O)cc1-c1cnc(N)c(-c2nc(C(F)F)no2)c1` [Example 71, 3-(6-Amino-5-(3-(difluoromethyl)-1,2,4-oxadiazol-5-yl)pyridin-3-yl)-N-(2-hydroxy-2-methylpropyl)-4-methylbenzenesulfonamide hydrochloride]: the pIC50 was 5.59 in assay [1], < 5.00 in assay [2], < 5.19 in assay [3] and < 5.52 in assay [4].

Turning to `Cc1noc(-c2cc(-c3cc(S(=O)(=O)NCC(C)(F)F)ccc3C)cnc2N)n1` [Example 37.38, 3-(6-Amino-5-(3-methyl-1,2,4-oxadiazol-5-yl)pyridin-3-yl)-N-(2,2-difluoropropyl)-4-methylbenzenesulfonamide], the pIC50 in assay [1] is 6.26; in assay [2], < 5.00; in assay [3] it was < 5.00; in assay [4] it was < 5.00.

On to `Cc1noc(-c2cc(-c3cc(S(N)(=O)=O)ccc3C)cnc2N)n1` [Example 75, 3-(6-Amino-5-(3-methyl-1,2,4-oxadiazol-5-yl)pyridin-3-yl)-4-methylbenzenesulfonamide], for which the pIC50 in assay [1] is 6.18; in assay [2], < 5.00; in assay [3], 5.10; in assay [4], 6.07.

Turning to `Cc1ccc(S(=O)(=O)NCCC(C)(C)O)cc1-c1cnc(N)c(-c2nc(CC(F)(F)F)no2)c1` [Example 79, 3-(6-Amino-5-(3-(2,2,2-trifluoroethyl)-1,2,4-oxadiazol-5-yl)pyridin-3-yl)-N-(3-hydroxy-3-methylbutyl)-4-methylbenzenesulfonamide], the pIC50 in assay [1] was 6.89; in assay [2] it was 5.27; in assay [3], 6.47; in assay [4], < 5.00.

On to `Cc1cc(-c2cc(-c3cc(S(=O)(=O)N[C@H]4CC[C@H](O)CC4)ccc3C)cnc2N)on1` [Example 5.4, trans 3-(6-Amino-5-(3-methylisoxazol-5-yl)pyridin-3-yl)-N-(-4-hydroxycyclohexyl)-4-methylbenzenesulfon-amide hydrochloride], for which the figures for the pIC50 in assay [2] and in assay [4] were 5.51 and < 5.00, respectively.

For the molecule `Cc1ncc(-c2cc(-c3cc(S(=O)(=O)NCCC(C)(C)O)ccc3C)cnc2N)o1` [Example 13, 3-[6-Amino-5-(2-methyl-oxazol-5-yl)-pyridin-3-yl]-N-(3-hydroxy-3-methyl-butyl)-4-methyl-benzenesulfonamide, hydrochloride salt], the results for the pIC50 in assay [1], in assay [2] and in assay [4] were 6.85, 6.07 and < 5.00, respectively.

In the case of `Cc1ncc(-c2cc(-c3cc(S(=O)(=O)N[C@H]4CC[C@H](O)CC4)ccc3C)cnc2N)o1` [Example 98, 3-(6-amino-5-(2-methyloxazol-5-yl)pyridin-3-yl)-N-((1r,4r)-4-hydroxycyclohexyl)-4-methylbenzenesulfonamide hydrochloride], the figures for the pIC50 in assay [2] and in assay [4] were 5.77 and 5.59, respectively.

On to `Cc1ncc(-c2cc(-c3cc(S(=O)(=O)NCC(C)(C)O)ccc3C)cnc2N)s1` [Example 15, 3-[6-Amino-5-(2-methyl-thiazol-5-yl)-pyridin-3-yl]-N-(2-hydroxy-2-methyl-propyl)-4-methyl-benzenesulfonamide], for which the values for the pIC50 in assay [2] and in assay [4] were 5.38 and 5.05, respectively.

For `Cc1noc(-c2cc(-c3cc(S(=O)(=O)NCC4CCOC4)ccc3C)cnc2N)n1` (centres unmarked) [Example 29, 3-(6-Amino-5-(3-methyl-1,2,4-oxadiazol-5-yl)pyridin-3-yl)-4-methyl-N-((tetrahydrofuran-3-yl)methyl)benzenesulfonamide], the pIC50 in assay [4] was < 5.00.

In the case of `Cc1ccc(S(=O)(=O)NCC(C)(C)O)cc1-c1cnc(N)c(-n2cncn2)c1` [Example 81, 3-(6-Amino-5-(1H-1,2,4-triazol-1-yl)pyridin-3-yl)-N-(2-hydroxy-2-methylpropyl)-4-methylbenzenesulfonamide hydrochloride], the results for the pIC50 in assay [2] and in assay [4] were 5.20 and 5.38, respectively.

As to `Cc1ccc(S(=O)(=O)N[C@H]2CC[C@H](O)CC2)cc1-c1cnc(N)c(-c2nc(CC(F)(F)F)no2)c1` [Example 78, trans-3-(6-Amino-5-(3-(2,2,2-trifluoroethyl)-1,2,4-oxadiazol-5-yl)pyridin-3-yl)-N-((1r,4r)-4-hydroxycyclohexyl)-4-methylbenzenesulfonamide], the pIC50 in assay [3] was < 5.00.

For `CCN1CCC[C@@H]1CNS(=O)(=O)c1ccc(C)c(-c2cnc(N)c(-c3cc(C)no3)c2)c1` [Example 37.27, (R)-3-(6-Amino-5-(3-methylisoxazol-5-yl)pyridin-3-yl)-N-((1-ethylpyrrolidin-2-yl)methyl)-4-methylbenzenesulfonamide], the values for the pIC50 in assay [1], in assay [2] and in assay [4] were 5.85, 5.57 and 5.24, respectively.

On to `Cc1cnc(-c2cc(-c3cc(S(=O)(=O)NCCC(C)(C)O)ccc3C)cnc2N)s1` [Example 91, 3-(6-Amino-5-(5-methylthiazol-2-yl)pyridin-3-yl)-N-(3-hydroxy-3-methylbutyl)-4-methylbenzenesulfonamide], for which the pIC50 in assay [2] was 6.66; in assay [3], 5.36; in assay [4], 5.61.
